Laboratory results published in ChEMBL document CHEMBL4823263, “Discovery of 2-(3-(3-Carbamoylpiperidin-1-yl)phenoxy)acetic Acid Derivatives as Novel Small-Molecule Inhibitors of the β-Catenin/B-Cell Lymphoma 9 Protein-Protein Interaction” (J Med Chem, 2021).

By UniProt entry, the sequences of proteins in these tests, tags left out.
UniProt P35222, whole entry: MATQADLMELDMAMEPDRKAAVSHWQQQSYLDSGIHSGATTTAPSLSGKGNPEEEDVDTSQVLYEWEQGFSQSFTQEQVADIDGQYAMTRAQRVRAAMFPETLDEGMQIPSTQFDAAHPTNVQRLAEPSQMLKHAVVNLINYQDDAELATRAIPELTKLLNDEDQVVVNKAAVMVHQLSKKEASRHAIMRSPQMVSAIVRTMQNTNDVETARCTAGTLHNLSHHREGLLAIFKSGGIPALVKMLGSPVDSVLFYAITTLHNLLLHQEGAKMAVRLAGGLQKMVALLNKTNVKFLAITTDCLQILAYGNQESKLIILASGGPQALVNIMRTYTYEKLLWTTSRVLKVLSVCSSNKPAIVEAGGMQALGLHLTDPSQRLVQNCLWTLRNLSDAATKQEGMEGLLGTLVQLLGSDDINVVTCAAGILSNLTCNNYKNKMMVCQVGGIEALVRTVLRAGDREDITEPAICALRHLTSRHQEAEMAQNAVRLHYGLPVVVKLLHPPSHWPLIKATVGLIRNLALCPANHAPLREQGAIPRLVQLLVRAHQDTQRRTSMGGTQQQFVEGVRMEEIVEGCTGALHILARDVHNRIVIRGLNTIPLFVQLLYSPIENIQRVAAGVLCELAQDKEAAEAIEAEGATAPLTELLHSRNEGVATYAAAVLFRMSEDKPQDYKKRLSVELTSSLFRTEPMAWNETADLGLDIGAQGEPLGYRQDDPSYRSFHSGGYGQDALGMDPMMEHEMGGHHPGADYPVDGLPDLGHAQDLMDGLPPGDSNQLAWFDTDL

Target: beta-catenin-B-cell lymphoma 9 protein complex (Homo sapiens, UniProt P35222)
Assay: Inhibition of full length C-terminal 6-His-tagged beta-catenin (1 to 781 residues) (unknown origin) expressed in Escherichia coli BL21 (DE3)-N-terminal biotinylated human BCL9 (350 to 375 residues) protein-protein interaction incubated for 1 hr by Alphascreen assay

IC50: 12 µM | Ki: 11 µM
Structure (SMILES): CC(C)c1ccc(COC(=O)N2CCC[C@@H](c3cccc(OC(C)(C)C(=O)O)c3)C2)cc1
